Experimental data reported in patent US20230024302A1.

By UniProt entry, the sequences of proteins in these tests, tags left out.
UniProt P48736, whole entry: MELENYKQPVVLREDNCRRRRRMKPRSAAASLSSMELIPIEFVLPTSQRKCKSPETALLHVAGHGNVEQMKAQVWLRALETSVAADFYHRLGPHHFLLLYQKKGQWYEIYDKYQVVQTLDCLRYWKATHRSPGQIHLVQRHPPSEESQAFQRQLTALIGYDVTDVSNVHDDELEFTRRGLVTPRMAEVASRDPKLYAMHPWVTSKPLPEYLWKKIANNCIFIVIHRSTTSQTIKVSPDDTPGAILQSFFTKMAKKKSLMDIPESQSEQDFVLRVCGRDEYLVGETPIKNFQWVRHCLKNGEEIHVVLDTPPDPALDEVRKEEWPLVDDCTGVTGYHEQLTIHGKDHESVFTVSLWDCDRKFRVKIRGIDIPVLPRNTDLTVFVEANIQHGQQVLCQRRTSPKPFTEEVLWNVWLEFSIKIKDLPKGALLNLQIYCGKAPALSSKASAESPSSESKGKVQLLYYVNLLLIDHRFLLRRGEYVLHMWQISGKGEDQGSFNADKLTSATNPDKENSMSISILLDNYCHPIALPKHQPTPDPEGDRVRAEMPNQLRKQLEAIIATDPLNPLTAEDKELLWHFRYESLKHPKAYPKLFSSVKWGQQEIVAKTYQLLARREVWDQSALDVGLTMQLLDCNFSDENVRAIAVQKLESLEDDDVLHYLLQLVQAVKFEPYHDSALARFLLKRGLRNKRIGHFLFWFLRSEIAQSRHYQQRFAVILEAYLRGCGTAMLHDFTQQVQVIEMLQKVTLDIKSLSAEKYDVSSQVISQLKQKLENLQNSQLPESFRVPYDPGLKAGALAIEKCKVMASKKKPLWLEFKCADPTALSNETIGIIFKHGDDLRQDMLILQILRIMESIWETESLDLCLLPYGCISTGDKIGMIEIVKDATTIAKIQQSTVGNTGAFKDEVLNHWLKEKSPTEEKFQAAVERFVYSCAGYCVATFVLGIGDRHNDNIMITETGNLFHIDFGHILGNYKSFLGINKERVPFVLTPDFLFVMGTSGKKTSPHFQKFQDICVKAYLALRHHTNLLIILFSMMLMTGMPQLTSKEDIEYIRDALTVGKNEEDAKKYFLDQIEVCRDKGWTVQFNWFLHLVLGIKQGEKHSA

How the values were obtained:
PI3Kγ (p120γ) = PI3Kγ (p120γ) (Homo sapiens, UniProt P48736); experiment: Inhibition of PI3K kinase activity (ADP Glo), PI3Kγ; conditions: read-out: biochemical potency (PI3Kγ IC50), Table 2
PI3Kγ = PI3Kγ (Homo sapiens, UniProt P48736); experiment: PI3Kγ cellular assay in THP-1 cells (AKT pS473 AlphaLISA); assay type: cell-based; conditions: read-out: cellular potency (PI3Kγ IC50), Table 2, rhMCP-1 stimulated AKT pS473

## Cc1cc(-c2ccn3nc(N)c(C(=O)N4CCN(C)CC4)c3n2)cc2c1C(=O)N([C@@H](C)C1CC1)C2
PI3Kγ (p120γ)
  IC50: < 0.1 µM
PI3Kγ
  IC50: 0.1 to 1 µM
